Data reported in PubChem BioAssay AID436 (Emory University Molecular Libraries Screening Center, 2006).
The list shows a part of the results, in another mix than the full data. Some of these compounds have results that are not shown, active ones among them. Activity calls are given as the source filed them.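 The calls were made as follows: active = activity remaining at or below 50% of control, provided the compound also passes the data quality filters; inactive = the rest, including low values that fail the filters.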

Sequences of proteins named here, by UniProt entry; tags and fusion partners are left off.
UniProt Q92560, whole entry: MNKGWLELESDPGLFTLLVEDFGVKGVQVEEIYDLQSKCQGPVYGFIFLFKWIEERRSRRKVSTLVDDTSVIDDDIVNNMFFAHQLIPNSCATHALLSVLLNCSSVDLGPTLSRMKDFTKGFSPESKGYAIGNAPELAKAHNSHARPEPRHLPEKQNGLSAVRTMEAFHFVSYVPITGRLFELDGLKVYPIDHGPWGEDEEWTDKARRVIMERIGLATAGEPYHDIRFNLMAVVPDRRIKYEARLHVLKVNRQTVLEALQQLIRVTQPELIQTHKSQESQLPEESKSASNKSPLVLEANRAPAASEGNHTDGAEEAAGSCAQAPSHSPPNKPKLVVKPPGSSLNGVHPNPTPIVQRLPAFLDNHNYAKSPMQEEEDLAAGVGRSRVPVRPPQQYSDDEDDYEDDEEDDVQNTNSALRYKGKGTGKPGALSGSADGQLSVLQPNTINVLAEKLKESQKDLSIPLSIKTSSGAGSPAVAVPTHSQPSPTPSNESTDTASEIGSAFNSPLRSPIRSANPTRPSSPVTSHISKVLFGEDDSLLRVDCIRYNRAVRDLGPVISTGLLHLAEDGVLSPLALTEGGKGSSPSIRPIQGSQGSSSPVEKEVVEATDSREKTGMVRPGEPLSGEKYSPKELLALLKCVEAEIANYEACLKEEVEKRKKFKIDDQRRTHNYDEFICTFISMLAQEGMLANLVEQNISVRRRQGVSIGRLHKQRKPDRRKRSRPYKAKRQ

Biological target: Ubiquitin carboxyl-terminal hydrolase BAP1 (Homo sapiens) (UniProt Q92560)
Test: BAP1 ubiquitin hydrolase activity blockers – biochemical, Ub-AMC fluorescence, kinetic, primary screen (AID 436);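 also: 100% = DMSO wells rate and 0% = substrate alone blank rate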
Details: recombinant BAP1, Ub-AMC hydrolysis fluorescence kinetic; at 20 µM; active compounds read low

SMILES	activity remaining (% of control)
CN(C)c1cccc(C(=O)NCC2(N(C)C)CCCCC2)c1	inactive: 110%
O=C(OC1CN2CCC1CC2)C(CO)(c1ccccc1)c1ccccc1 (configuration not stated)	inactive: 105%
